Source: ChEMBL document CHEMBL3992491, “Discovery, structure-activity relationship studies, and anti-nociceptive effects of N-(1,2,3,4-tetrahydro-1-isoquinolinylmethyl)benzamides as novel opioid receptor agonists” (Eur J Med Chem, 2017)

Amino acid sequences for entries named in this document (tags omitted).
UniProt P35372, whole entry: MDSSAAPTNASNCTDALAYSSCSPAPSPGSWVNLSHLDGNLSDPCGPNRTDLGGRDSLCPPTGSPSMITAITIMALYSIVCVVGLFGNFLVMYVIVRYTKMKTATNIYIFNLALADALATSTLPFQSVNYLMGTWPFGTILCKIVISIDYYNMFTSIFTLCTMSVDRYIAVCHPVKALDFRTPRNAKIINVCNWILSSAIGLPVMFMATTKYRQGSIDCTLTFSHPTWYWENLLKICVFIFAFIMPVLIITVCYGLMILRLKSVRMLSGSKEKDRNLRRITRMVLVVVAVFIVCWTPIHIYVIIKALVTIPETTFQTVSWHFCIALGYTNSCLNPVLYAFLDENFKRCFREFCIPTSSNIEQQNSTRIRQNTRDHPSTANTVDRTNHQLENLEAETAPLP

biological target: Mu-type opioid receptor (Homo sapiens, UniProt P35372); assay: Agonist activity at human MOR expressed in HEK293 cells assessed as inhibition of forskolin-induced adenylyl cyclase-mediated cAMP accumulation after 30 mins by HTRF assay; format: functional, cell-based

Structure (SMILES) | Imax [%]
O=C(NCC1NCCc2ccccc21)c1ccc(Cl)c(Cl)c1 (stereo unspecified) | 67.9
O=C(NCC1NCCc2ccccc21)c1ccc(Cl)cc1 (stereo unspecified) | 80.4
O=C(NCC1NCCc2ccccc21)c1ccc(F)cc1 (stereo unspecified) | 80.1
Cc1ccc(C(=O)NCC2NCCc3ccccc32)cc1C (stereo unspecified) | 72.8

The remaining lines, values ahead:

Imax [%] | Structure (SMILES)
62.3 | COc1ccc(C(=O)NCC2NCCc3ccccc32)cc1 (stereo unspecified)
77.1 | O=C(NCC1NCCc2ccccc21)c1ccc(OC(F)(F)F)cc1 (stereo unspecified)
